Measured values as given in ChEMBL document CHEMBL5725680, “Aryl-cyanoguanidine compounds” (2018).

Test: Scintillation Proximity Assay (SPA) for Detection of SMYD2 Enzymatic Inhibition: SMYD2 inhibitory activities of the compounds described in the present invention were quantified using a scintillation proximity assay (SPA) which measures methylation by the enzyme of the synthetic, biotinylated peptide Btn-Ahx […] (SEQ ID NO: 3) Amid x TFA (Biosyntan) derived from p53 and referred to from here on as p53 Peptide. […] To this end, 100-fold concentrated compound solutions (in DMSO) were previously prepared by serial dilution (1:3.4) of 2 mM stocks in a clear low volume 384-well source microtiter plate (Greiner Bio-One), from which 50 nl of compound solutions were transferred into a white low volume test microtiter plate from the same supplier. Subsequently, 2.5 μl SMYD2 in aqueous assay buffer [50 mM Tris/HCl pH 9.0 (AppliChem), 1 mM dithiothreitol (DTT, Sigma), 0.01% (w/v) bovine serum albumine (BSA, Sigma), 0.0022% (v/v) Pluronic (Sigma)] were added to the compounds in the test plate to a final enzyme concentration of typically 3 nM (this parameter was adjusted depending on the activity of the enzyme lot in order to be within the linear dynamic range of the assay). […]

IC50: > 20 µM
Structure (SMILES): CCN(C(=O)CO)C1CN(/C(=N\C#N)Nc2cc(OC(F)F)ccc2OC)N=C1c1ccc(Cl)c(Cl)c1 (single isomer, unassigned)
